Assay results published in patent US20170198196A1, “METHODS FOR CONTROLLING SOURING IN ENGINEERED SYSTEMS” (The Regents of the University of California, priority 2014, published 2017).

Tests used:
[1] = test system: Desulfovibrio alaskensis G20; settings: for IC50: read-out: IC50 against growth of Desulfovibrio alaskensis G20
[2] = test system: Desulfovibrio alaskensis G20; test: microbe, parasite or virus in culture; settings: Oleidesulfovibrio alaskensis
[3] = test system: Desulfovibrio alaskensis G20
[4] = test system: Desulfovibrio alaskensis G20 tn5::rex mutant

## chlorite
[1]
  IC50 values (in terms of growth inhibition), in words: sub-millimolar
  IC50: < 1000 µM

## O=S(O)O [sulfite]
[1]
  IC50 against growth of Desulfovibrio alaskensis G20: growth substrate

## F [fluoride ion, fluoride]
[2]; G20, 48 h, read-out: IC50 against growth of Desulfovibrio alaskensis G20 (95% confidence interval)
  IC50: 34000 µM

## O=NO [nitrite]
[3]
  potency against sulfite grown cells relative to sulfate grown cells, in words: more inhibitory of sulfite reduction
[1]
  IC50 values (in terms of growth inhibition), in words: sub-millimolar

## O=[N+]([O-])O [nitrate]
[4]
  response of Rex mutants relative to wild-type G20, in words: resistant
[3]
  potency against pyruvate fermenting G20 relative to lactate/sulfate grown G20, in words: less potent inhibitors of pyruvate grown G20 than lactate/sulfate grown G20
  potency against sulfite grown cells relative to sulfate grown cells, in words: less inhibitory to sulfite grown cells than sulfate grown cells

## O=[Se](=O)(O)O [selenate]
[1]
  IC50: 4 µM

## [O]=[W](=[O])([O-])[O-] [tungstate]
[4]
  response of Rex mutants relative to wild-type G20, in words: equally potent inhibitors of Rex mutants and wild-type cells
[1]
  IC50: 63.3 µM

## (per)chlorate
[4]
  response of Rex mutants relative to wild-type G20, in words: resistant
[3]
  potency against pyruvate fermenting G20 relative to lactate/sulfate grown G20, in words: less potent inhibitors of pyruvate grown G20 than lactate/sulfate grown G20
  potency against sulfite grown cells relative to sulfate grown cells, in words: less inhibitory to sulfite grown cells than sulfate grown cells

## O=S(=O)(O)O [sulfate]
[1]
  IC50 against growth of Desulfovibrio alaskensis G20: growth substrate

## [O]=[Mo](=[O])([O-])[O-] [molybdate]
[4]
  response of Rex mutants relative to wild-type G20, in words: equally potent inhibitors of Rex mutants and wild-type cells
[3]
  potency against sulfite grown cells relative to sulfate grown cells, in words: less inhibitory to sulfite grown cells than sulfate grown cells
[1]
  IC50: 28.1 µM

## [O-][Cl+3]([O-])([O-])O [perchlorate]
[2]; G20, read-out: IC50 against growth of Desulfovibrio alaskensis G20
  IC50: 23200 µM

Where two headings read alike, the source gives them in different places.
